Experimental data: patent US12414931B1 (priority 2024, dated 2025)

Amino acid sequences for entries named in this document (tags omitted). Residues count along the entry.
UniProt O94925, 55-669 limits assumed: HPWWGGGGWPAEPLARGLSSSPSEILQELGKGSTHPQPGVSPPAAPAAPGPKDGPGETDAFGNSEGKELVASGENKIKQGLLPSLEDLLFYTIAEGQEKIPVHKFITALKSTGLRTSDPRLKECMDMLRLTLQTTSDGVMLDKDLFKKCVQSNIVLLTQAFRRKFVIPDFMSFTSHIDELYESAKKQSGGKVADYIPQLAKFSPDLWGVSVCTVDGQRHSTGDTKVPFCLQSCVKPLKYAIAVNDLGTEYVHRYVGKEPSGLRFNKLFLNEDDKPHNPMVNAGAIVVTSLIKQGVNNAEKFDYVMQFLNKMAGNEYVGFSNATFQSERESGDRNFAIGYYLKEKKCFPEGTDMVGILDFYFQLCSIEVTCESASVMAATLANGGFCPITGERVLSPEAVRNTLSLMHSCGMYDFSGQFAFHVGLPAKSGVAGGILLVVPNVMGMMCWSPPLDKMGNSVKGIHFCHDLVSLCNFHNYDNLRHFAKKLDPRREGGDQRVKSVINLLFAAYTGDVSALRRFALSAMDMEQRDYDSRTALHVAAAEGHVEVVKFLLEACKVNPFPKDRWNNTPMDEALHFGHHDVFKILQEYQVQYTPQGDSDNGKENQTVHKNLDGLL

Columns and labels:
[1] = tested on: MDA-MB-231 cells; test: Cell viability, CellTiter-Glo Luminescent Cell Viability Assay, MDA-MB-231; settings: read-out: IC50 cell viability; MDA-MB-231, 72 h
[2] = tested on: HCC1569 cells; test: Cell viability, CellTiter-Glo Luminescent Cell Viability Assay, HCC1569; settings: read-out: IC50 cell viability; HCC1569, 72 h
[3] = tested on: MCF12A cells; test: Cytotoxicity to normal breast cells, CellTiter-Glo, MCF12A; type: cell-based, human; settings: read-out: IC50 cell viability, normal breast cells, 72 h
[4] = tested on: MDA-MB-231 cells; test: Arsenic uptake assay (ICP-MS total arsenic); settings: MDA-MB-231, 5 μM arsenic compound, 72 h, total arsenic by ICP-MS
[5] = target: KGA (Homo sapiens, UniProt O94925); test: KGA inhibition by thiolated pentavalent organoarsenicals

SMILES	IC50 [1] [µM]	IC50 [2] [µM]	IC50 [3] [µM]	cell permeability (uptake of arsenicals) [4]	inhibition of KGA compared with AST-OH [5]
O=[N+]([O-])c1cc([As](O)O)ccc1O	10	9	5.6	better permeability than R-AST-OH	
NC(CC[As](O)(O)=S)C(=O)O (stereo not drawn)					much higher affinity than AST-OH
NC(CC[As](O)(=S)S)C(=O)O (stereo not drawn)					much higher affinity than AST-OH
